The values that follow come from ChEMBL document CHEMBL1133481, “Resistance-modifying agents. 8. Inhibition of O(6)-alkylguanine-DNA alkyltransferase by O(6)-alkenyl-, O(6)-cycloalkenyl-, and O(6)-(2-oxoalkyl)guanines and potentiation of temozolomide cytotoxicity in vitro by O(6)-(1-cyclopentenylmethyl)guanine” (J Med Chem, 2000).

In test [1] the target is T1, Methylated-DNA--protein-cysteine methyltransferase (Homo sapiens, UniProt P16455).
T1 sequence (P16455 whole entry): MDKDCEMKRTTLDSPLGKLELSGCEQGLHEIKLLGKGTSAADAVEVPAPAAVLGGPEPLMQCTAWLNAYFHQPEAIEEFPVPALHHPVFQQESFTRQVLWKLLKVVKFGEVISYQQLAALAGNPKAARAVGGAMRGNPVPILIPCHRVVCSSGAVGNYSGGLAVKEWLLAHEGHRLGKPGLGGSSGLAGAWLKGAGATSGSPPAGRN
The test is described as follows: concentration required to reduce AGT activity to 50% of control rate in intact HT-29 human colorectal carcinoma cells. It is filed as cell-based. An outline of the steps: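 HT29 cells were grown 3 days in EMEM with 10% FCS, then exposed for 4 h to inactivator in serum-free EMEM (DMSO final 1% or 0.1%). Cells were trypsinized, washed and counted by trypan blue; pellets of 10⁷ cells were homogenized in Tris-HCl pH 8.3 buffer with EDTA, DTT and 200 mM NaCl. AGT activity was assayed in the extracts, and the concentration depleting whole-cell AGT activity by 50% was calculated.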

Test [2] addresses T1, Methylated-DNA--protein-cysteine methyltransferase. Put plainly: Inhibition of AGT activity to 50% of control rate in HT-29 cell extract. In kind it is cell-free. An outline of the steps: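 HT29 cell extract AGT assay; IC50 is the inhibitor concentration reducing AGT activity to 50% of the control rate.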

The term IC50 denotes the midpoint of a concentration-inhibition curve.

For `Nc1nc(OCc2ccccc2)c2[nH]cnc2n1` [6-O-BENZYLGUANINE], the results for the concentration for half-maximal inhibition (IC50) in test [1] and in test [2] were 58 nM and 180 nM, respectively.
